The results in this text go back to PubChem BioAssay AID588478 (ICCB-Longwood Screening Facility, Harvard Medical School, 2011).

The chains behind the UniProt entries cited, without tags or fusion partners.
UniProt Q9Y5K5, whole entry: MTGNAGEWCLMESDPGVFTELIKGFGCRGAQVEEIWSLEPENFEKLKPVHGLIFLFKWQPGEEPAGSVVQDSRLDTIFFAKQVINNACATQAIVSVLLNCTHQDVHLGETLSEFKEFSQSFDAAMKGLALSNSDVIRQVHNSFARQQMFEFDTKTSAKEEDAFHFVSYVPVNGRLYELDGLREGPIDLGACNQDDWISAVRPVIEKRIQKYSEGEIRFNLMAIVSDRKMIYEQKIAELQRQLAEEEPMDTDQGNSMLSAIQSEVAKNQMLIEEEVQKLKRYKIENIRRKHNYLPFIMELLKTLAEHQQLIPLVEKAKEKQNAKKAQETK

Only a part is listed here, and it is no random draw. Calls of active or inactive are those of the source.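 How the source made its calls: active means mean inhibition over replicate wells above about 20% (limit read from the data); inactive means the rest.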

The target of the experiment is Ubiquitin carboxyl-terminal hydrolase isozyme L5 (Homo sapiens) (UniProt Q9Y5K5). The experiment is described as follows: proteasome-bound UCH37 DUB activity blockers – biochemical, Ub-AMC cleavage, fluorescence, primary screen (AID 588478).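 Further: 0% = compound-free wells with enzyme and 100% = wells lacking proteasome.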 To be noted: purified proteasome/UCH37, Ub-AMC cleavage fluorescence; hits give high values; concentration not given here. An outline of the steps: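 Reagent: Ub-AMC substrate; assay system: Proteasome-associated human UCH37 deubiquitinase; controls: no-proteasome and no-compound wells; read-out: % inhibition of Ub-AMC cleavage fluorescence; timing: 30 min preincubation with enzyme, 25 min cleavage at room temperature; signal: AMC fluorescence from Ub-AMC cleavage, excitation 355 nm, emission 460 nm; buffer or medium: Tris-HCl pH 7.4 plus ovalbumin, ATP-MgCl2, DTT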
With `CCC(=O)N(c1ccccc1)C1(COC)CCN(CCn2nnn(CC)c2=O)CC1`, the inhibition (in general, the drop in the measured response relative to a control, in per cent) is inactive: -1.04%.

Turning to `CCC(=O)N(c1ccccc1)C1(COC)CCN(CCc2cccs2)CC1`, the inhibition was inactive: 2.1%.
